ChEMBL document CHEMBL3808358, “Rational Design of Small Peptides for Optimal Inhibition of Cyclooxygenase-2: Development of a Highly Effective Anti-Inflammatory Agent” (J Med Chem, 2016)

Experiment: Selectivity index, ratio of IC50 for ovine COX1 to IC50 for human recombinant COX2
Method in brief: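 Ovine COX-1 and human recombinant COX-2 with heme are preincubated with inhibitor for 10 min at 37 °C. Arachidonic acid is then added for 2 min at 37 °C. Prostaglandins are quantified by competitive AChE-tracer EIA, read at 420 nm. Four concentrations (10^-5 to 10^-8 M) are tested in triplicate. IC50 is taken from the dose-response curve of the mean % inhibition.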

**Q.** Which Ratio IC50 does the source give for CC(C)C[C@H](NC(=O)CNC(=O)[C@@H](N)C(C)C)C(=O)O here?
**A.** 5
